SMILES strings stand for the structures. This is a selection; strong and weak results do not stand in their true shares. Activity calls are given as the source filed them.

This assay is described as follows: plasmodial surface anion channel blockers, osmotic lysis – cell-based, P. falciparum Indochina, OD700, 1 h, primary screen (AID 1154). Conditions: P. falciparum Indochina infected RBC osmotic lysis, higher = more signal, called active from +8 up or from −8 down.
In the case of `COP(=O)(/N=C1/CC(CCCO)=CC(C2CC2)N1Cc1cc2c(cc1Br)OCO2)OC` (stereo not given), the z-score is inactive: 3.22.
Take `CN1/C(=N\P(=O)(Oc2ccccc2)Oc2ccccc2)CC(CCCO)=CC1c1cccs1` (stereo not given): the z-score is inactive: 2.04.
As to `COP(=O)(/N=C1/CC(CCCO)=CC(C2CC2)N1Cc1cccc(OC(F)(F)F)c1)OC` (stereo not given), the z-score was inactive: 0.553.
The result for `O=P(/N=C1/CC(CCCO)=CC(C2CC2)N1Cc1cc2c(cc1Br)OCO2)(Oc1ccccc1)Oc1ccccc1` (stereo not given) reads inactive: 3.13; that for `COP(=O)(/N=C1/CC(CCCO)=CC(c2ccc(CN3CCCC3)cc2)N1Cc1cc2c(cc1Br)OCO2)OC` (stereo not given), inactive: 0.725.
For the compound `O=P(/N=C1/CC(CCCO)=CC(c2ccc(CN3CCCC3)cc2)N1Cc1cc2c(cc1Br)OCO2)(Oc1ccccc1)Oc1ccccc1` (stereo not given), the z-score is inactive: 0.732.
The value for `CC1C=C(CCCO)C/C(=N/P(=O)(Oc2ccccc2)Oc2ccccc2)N1Cc1cccc(OC(F)(F)F)c1` (stereo not given) was inactive: 0.987; that for `CN1/C(=N\P(=O)(Oc2ccccc2)Oc2ccccc2)CC(c2ccc(CO)cc2)=CC1C1CC1` (stereo not given) was inactive: 2.09.
The result for `O=P(/N=C1/CC(CCCO)=CC(c2cccs2)N1Cc1cccc(OC(F)(F)F)c1)(Oc1ccccc1)Oc1ccccc1` (stereo not given) reads inactive: 2.3; that for `O=P(/N=C1/CC(CCCO)=CC(C2CC2)N1Cc1cccc(OC(F)(F)F)c1)(Oc1ccccc1)Oc1ccccc1` (stereo not given), inactive: 1.47.
`O=P(/N=C1/CC(c2ccc(CO)cc2)=CC(C2CC2)N1Cc1cc2c(cc1Br)OCO2)(Oc1ccccc1)Oc1ccccc1` (stereo not given): the z-score is inactive: 6.93.
With `O=P(/N=C1/CC(c2ccc(CO)cc2)=CC(c2cccs2)N1Cc1cccc(OC(F)(F)F)c1)(Oc1ccccc1)Oc1ccccc1` (stereo not given), the z-score was inactive: 3.35.
Regarding `COP(=O)(/N=C1/CC(c2ccc(CO)cc2)=CC(c2cccs2)N1C)OC` (stereo not given), the z-score is inactive: 3.91.
As for `CN1/C(=N\P(=O)(Oc2ccccc2)Oc2ccccc2)CC(CCCO)=CC1c1ccc(CN2CCCC2)cc1` (stereo not given), the z-score was inactive: 0.689.
The result for `O=P(/N=C1/CC(CCCO)=CC(c2cccs2)N1Cc1cc2c(cc1Br)OCO2)(Oc1ccccc1)Oc1ccccc1` (stereo not given) reads inactive: 4.44.
The result for `COP(=O)(/N=C1/CC(CCCO)=CC(c2ccc(CN3CCCC3)cc2)N1Cc1cccc(OC(F)(F)F)c1)OC` (stereo not given) reads inactive: 0.816.
Take `CN1/C(=N\P(=O)(Oc2ccccc2)Oc2ccccc2)CC(c2ccc(CO)cc2)=CC1c1cccs1` (stereo not given): the z-score was inactive: 2.48.
In the case of `COP(=O)(/N=C1/CC(c2ccc(CO)cc2)=CC(C2CC2)N1Cc1sc2ccccc2c1Cl)OC` (stereo not given), the z-score was active: 13.7.
The value for `COP(=O)(/N=C1/CC(CCCO)=CC(c2cccs2)N1C)OC` (stereo not given) was inactive: 0.773.
With `COP(=O)(/N=C1/CC(CCCO)=CC(C2CC2)N1C)OC` (stereo not given), the z-score is inactive: -1.02.
The result for `COP(=O)(/N=C1/CC(CCCO)=CC(c2ccc(CN3CCCC3)cc2)N1C)OC` (stereo not given) reads inactive: -0.365; that for `COP(=O)(/N=C1/CC(CCCO)=CC(C)N1Cc1cccc(OC(F)(F)F)c1)OC` (stereo not given), inactive: -0.277; that for `COP(=O)(/N=C1/CC(CCCO)=CC(C2CC2)N1Cc1sc2ccccc2c1Cl)OC` (stereo not given), inactive: 7.58.
With `COP(=O)(/N=C1/CC(c2ccc(CO)cc2)=CC(C2CC2)N1C)OC` (stereo not given), the z-score is inactive: 1.07.
As to `COP(=O)(/N=C1/CC(c2ccc(CO)cc2)=CC(C2CC2)N1Cc1cc2c(cc1Br)OCO2)OC` (stereo not given), the z-score is active: 9.29.
The value for `O=P(/N=C1/CC(CCCO)=CC(C2CC2)N1Cc1sc2ccccc2c1Cl)(Oc1ccccc1)Oc1ccccc1` (stereo not given) was inactive: 7.46; that for `COP(=O)(/N=C1/CC(CCCO)=CC(c2ccc(CN3CCCC3)cc2)N1Cc1sc2ccccc2c1Cl)OC` (stereo not given) was inactive: 4.09; that for `O=P(/N=C1/CC(c2ccc(CO)cc2)=CC(C2CC2)N1Cc1sc2ccccc2c1Cl)(Oc1ccccc1)Oc1ccccc1` (stereo not given) was inactive: 7.89.
The result for `O=P(/N=C1/CC(CCCO)=CC(c2ccc(CN3CCCC3)cc2)N1Cc1sc2ccccc2c1Cl)(Oc1ccccc1)Oc1ccccc1` (stereo not given) reads inactive: 4.57.
On to `CN1/C(=N\P(=O)(Oc2ccccc2)Oc2ccccc2)CC(CCCO)=CC1C1CC1` (stereo not given), for which the z-score is inactive: 0.0313.
